Experimental data published in paper PMC5537225, “Therapeutic efficacy of a respiratory syncytial virus fusion inhibitor” (Nature Communications, 2017).

Test system: HBV
Assay: HBV assay in HepG2.117 cells (HBV DNA qPCR)
Type: cell-based
Conditions: Hepatitis B virus, mean of at least 3 experiments

SMILES: CS(=O)(=O)CCCn1c(Cn2c(=O)n(CC(F)(F)F)c3ccncc32)cc2cc(Cl)ccc21 [JNJ-53718678]
- EC50: 26.8 µM
